Measured values: PMC9599461, “Stereoselectivity in the Membrane Transport of Phenylethylamine Derivatives by Human Monoamine Transporters and Organic Cation Transporters 1, 2, and 3” (Biomolecules, 2022)
Marks after values point to notes of the source that are not given here.

Amino acid sequences for entries named in this document (tags omitted).
UniProt P23975, whole entry: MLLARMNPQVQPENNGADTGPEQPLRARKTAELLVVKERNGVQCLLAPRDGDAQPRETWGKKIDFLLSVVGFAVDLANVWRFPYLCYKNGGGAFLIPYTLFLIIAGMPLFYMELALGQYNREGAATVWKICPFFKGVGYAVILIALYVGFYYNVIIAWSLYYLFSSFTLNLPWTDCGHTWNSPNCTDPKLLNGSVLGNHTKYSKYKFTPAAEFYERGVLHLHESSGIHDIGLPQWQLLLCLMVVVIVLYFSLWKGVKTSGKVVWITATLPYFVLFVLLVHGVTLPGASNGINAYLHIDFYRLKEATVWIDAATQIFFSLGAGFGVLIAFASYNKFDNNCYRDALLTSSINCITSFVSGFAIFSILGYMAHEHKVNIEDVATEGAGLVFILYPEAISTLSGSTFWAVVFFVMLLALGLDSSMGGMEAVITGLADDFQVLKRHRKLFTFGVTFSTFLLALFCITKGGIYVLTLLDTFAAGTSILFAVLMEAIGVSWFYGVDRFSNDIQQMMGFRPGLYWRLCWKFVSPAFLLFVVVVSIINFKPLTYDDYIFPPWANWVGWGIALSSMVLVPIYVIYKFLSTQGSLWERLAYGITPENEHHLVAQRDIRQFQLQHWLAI
UniProt Q01959, whole entry: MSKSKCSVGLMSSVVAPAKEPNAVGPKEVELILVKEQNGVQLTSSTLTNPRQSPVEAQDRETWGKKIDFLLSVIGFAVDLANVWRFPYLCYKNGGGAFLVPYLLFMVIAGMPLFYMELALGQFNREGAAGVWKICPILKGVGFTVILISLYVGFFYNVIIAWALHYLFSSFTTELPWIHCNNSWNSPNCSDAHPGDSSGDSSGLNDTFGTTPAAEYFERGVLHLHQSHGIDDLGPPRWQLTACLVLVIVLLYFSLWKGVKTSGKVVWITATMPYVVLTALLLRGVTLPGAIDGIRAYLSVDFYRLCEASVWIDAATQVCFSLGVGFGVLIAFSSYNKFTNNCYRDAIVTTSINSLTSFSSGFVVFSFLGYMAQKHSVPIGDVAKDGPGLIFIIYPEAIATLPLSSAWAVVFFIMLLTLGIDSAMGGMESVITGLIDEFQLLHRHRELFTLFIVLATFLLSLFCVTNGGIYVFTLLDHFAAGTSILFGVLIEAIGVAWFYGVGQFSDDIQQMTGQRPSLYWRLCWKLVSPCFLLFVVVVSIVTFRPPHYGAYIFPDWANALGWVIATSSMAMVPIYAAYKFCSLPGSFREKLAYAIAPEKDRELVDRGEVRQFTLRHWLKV

Assays:
NET = NET (Homo sapiens, UniProt P23975); assay: Stereoselective uptake into NET-overexpressing HEK293 cells; details: ratio between enantiomers, given as for (R) or for 1;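 further: intracellular enantiomers quantified in cell lysates by chiral HPLC-MS/MS after a 2 min substrate incubation, with uptake normalized to total cellular protein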
OCT2 = molecular target: T1, OCT2 (Homo sapiens, UniProt O15244, S270A); assay: Stereoselective uptake into OCT2 (wild-type)-overexpressing HEK293 cells; details: ratio between enantiomers
T1 sequence (O15244 1-555 S270A): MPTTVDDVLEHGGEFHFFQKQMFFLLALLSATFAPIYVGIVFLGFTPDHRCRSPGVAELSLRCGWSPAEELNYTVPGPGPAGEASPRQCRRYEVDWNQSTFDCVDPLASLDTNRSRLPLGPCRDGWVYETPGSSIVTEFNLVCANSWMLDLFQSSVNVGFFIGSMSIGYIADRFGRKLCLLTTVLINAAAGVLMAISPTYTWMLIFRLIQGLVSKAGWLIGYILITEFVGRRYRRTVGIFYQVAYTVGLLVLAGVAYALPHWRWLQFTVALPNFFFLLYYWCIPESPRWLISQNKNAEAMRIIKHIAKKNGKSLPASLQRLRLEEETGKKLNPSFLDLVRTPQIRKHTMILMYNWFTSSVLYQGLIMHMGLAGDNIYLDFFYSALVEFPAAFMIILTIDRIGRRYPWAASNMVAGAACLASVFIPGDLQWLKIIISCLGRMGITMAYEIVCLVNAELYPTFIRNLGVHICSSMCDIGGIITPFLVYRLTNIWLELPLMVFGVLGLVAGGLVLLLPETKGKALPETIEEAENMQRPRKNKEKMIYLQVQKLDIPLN

DAT = DAT (Homo sapiens, UniProt Q01959); assay: Stereoselective uptake into DAT-overexpressing HEK293 cells; details: ratio between enantiomers, printed as for (R) or for 1 (also 1.00-fold for (R/S));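 further: intracellular accumulation measured by chiral HPLC-MS/MS in stably transfected HEK293 cells, normalized to total protein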
OCT3 = molecular target: T2, OCT3 (Homo sapiens, UniProt O75751); assay: Stereoselective uptake into OCT3-overexpressing HEK293 cells; details: ratio between enantiomers, given as for (S) or for 2;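 further: intracellular accumulation in HEK293 cells measured by chiral HPLC-MS/MS after a 2 min substrate exposure at 37 °C, uptake normalized to total protein (bicinchoninic acid assay)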
T2 sequence (O75751 1-556): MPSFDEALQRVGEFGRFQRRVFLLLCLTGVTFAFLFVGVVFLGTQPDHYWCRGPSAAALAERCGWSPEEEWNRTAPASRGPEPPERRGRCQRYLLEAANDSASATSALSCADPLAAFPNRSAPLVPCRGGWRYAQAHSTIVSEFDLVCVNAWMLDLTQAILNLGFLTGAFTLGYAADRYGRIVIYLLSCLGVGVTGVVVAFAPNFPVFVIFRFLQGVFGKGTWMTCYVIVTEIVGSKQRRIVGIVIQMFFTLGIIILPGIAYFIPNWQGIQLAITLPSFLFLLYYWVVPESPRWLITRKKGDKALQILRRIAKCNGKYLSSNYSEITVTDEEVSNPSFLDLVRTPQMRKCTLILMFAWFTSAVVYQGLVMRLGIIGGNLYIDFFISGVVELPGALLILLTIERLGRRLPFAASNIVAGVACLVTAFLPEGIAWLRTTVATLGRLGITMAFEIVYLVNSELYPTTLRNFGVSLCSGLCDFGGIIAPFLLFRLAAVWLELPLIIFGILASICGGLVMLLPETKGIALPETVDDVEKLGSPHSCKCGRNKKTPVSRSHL

OCT1 = molecular target: T3, OCT1 (Homo sapiens, UniProt O15245); assay: Stereoselective uptake into OCT1-overexpressing HEK293 cells; details: ratio between enantiomers;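 further: enantiomers quantified inside cells by chiral HPLC-MS/MS, uptake normalized to total protein from bicinchoninic acid assay, substrates applied in HBSS+ buffer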
T3 sequence (O15245 1-554): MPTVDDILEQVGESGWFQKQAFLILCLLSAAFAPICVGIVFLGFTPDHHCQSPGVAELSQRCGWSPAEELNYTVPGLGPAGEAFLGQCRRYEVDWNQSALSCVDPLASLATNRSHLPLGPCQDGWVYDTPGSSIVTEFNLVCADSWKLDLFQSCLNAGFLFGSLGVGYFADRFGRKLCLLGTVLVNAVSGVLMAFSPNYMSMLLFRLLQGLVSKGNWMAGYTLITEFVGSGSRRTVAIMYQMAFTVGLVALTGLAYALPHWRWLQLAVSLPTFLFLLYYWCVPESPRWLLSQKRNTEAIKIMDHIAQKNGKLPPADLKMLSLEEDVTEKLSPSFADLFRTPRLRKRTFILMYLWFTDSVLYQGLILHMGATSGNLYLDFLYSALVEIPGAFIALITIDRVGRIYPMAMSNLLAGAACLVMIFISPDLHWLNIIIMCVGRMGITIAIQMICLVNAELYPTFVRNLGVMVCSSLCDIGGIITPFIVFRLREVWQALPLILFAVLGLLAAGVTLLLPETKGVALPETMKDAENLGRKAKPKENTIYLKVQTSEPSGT

OCT2 A270S variant = assay: Stereoselective uptake into OCT2 A270S variant-overexpressing HEK293 cells; details: OCT2 wild-type versus A270S, 100 μM racemic substance, two minutes; given as for WT;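 further: uptake into HEK293 cells stably overexpressing human OCT2 variants, intracellular enantiomers quantified by chiral HPLC-MS/MS and normalized to total protein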
[1] = given as for (S) or for 2 (second-eluting)

## (R)-Epinephrine
NET
  Stereoselectivity ClInt: 1.41-fold for (R)
OCT2; given as for (R) or for 1
  Stereoselectivity ClInt: 2.08-fold for (R)
  Stereoselectivity Vmax: 1.82-fold for (R) **
OCT2; [1]
  Stereoselectivity Km: 1.14-fold for (S)
DAT
  Stereoselectivity ClInt: 1.71-fold for (R)
OCT3
  Stereoselectivity ClInt: 1.78-fold for (S)
OCT1; given as for (R) or for 1 (also 1.00-fold for 1/2)
  Stereoselectivity ClInt: 1.08-fold for (R)
OCT1; given as for (S) or for 2
  Stereoselectivity Vmax: 1.04-fold for (S)
OCT1; [1]
  Stereoselectivity Km: 1.13-fold for (S)
OCT2 A270S variant
  Transporter selectivity: 1.19 fold
